The values that follow come from patent US20050234066A1, “Alpha substituted carboxylic acids” (Agouron Pharmaceuticals, Inc., priority 2004, published 2005).

Amino acid sequences for entries named in this document (tags omitted).
UniProt P37231, whole entry: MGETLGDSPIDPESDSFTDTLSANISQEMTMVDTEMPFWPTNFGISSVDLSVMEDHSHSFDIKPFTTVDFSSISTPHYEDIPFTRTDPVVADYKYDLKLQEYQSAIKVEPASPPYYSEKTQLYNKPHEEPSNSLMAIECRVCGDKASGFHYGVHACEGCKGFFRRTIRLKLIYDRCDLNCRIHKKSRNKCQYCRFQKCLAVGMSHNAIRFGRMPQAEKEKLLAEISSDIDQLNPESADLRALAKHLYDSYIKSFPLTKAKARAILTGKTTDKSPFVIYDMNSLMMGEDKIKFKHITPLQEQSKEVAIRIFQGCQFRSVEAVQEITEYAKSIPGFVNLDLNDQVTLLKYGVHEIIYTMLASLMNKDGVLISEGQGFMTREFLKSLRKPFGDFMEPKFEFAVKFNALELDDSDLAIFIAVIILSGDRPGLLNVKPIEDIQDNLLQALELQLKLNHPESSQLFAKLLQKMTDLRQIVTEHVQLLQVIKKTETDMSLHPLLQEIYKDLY
UniProt Q07869, whole entry: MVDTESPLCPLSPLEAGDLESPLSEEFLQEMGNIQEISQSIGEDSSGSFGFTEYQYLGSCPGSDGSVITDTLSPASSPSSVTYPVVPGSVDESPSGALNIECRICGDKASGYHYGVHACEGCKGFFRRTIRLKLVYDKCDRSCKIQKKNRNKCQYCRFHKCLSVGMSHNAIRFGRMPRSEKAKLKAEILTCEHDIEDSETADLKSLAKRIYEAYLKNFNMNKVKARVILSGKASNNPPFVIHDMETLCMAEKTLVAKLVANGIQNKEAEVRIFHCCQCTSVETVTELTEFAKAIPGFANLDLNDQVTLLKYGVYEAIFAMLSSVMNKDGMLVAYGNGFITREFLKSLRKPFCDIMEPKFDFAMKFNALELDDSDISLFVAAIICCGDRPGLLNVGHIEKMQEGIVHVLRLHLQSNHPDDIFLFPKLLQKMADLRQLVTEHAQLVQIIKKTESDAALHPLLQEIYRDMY

One experiment concerns the target PPAR-γ (Homo sapiens, UniProt P37231). Description: Scintillation Proximity Assay (SPA), displacement of 3H labeled darglitazone. The class given is binding. The settings on record: read-out: PPAR-gamma Ki, 3H darglitazone displacement. (In general: Scintillation proximity formats need no separation of bound from free tracer.)
Another experiment deals with PPAR-α (Homo sapiens, UniProt Q07869). Description: Scintillation Proximity Assay (SPA), displacement of 3H labeled GW2331. The format is binding. The settings on record: read-out: PPAR-alpha Ki, 3H GW2331 displacement.

Values joined by “and” are separate entries in the source; they are usually repeats but may differ in a detail not shown here. Identical values can stand only once.

With `CCOC(Cc1cccc(-c2cccc(OCCc3nc(-c4ccccc4)oc3C)c2)c1)C(=O)O` (single isomer, unassigned) [A-28 E/M], the Ki (usually the equilibrium dissociation constant of an inhibitor or competing ligand from its target) is 44 nM at PPAR-γ and 930 nM at PPAR-α.
For `Cc1oc(-c2ccccc2)nc1CCCc1ccc(CC2(C(=O)O)CCCO2)cn1` (single isomer, unassigned), the Ki on PPAR-γ is 470 nM; at PPAR-α, 4200 nM.
`COC(C)(Cc1ccc(OCCc2nc(-c3ccccc3)oc2C)cn1)C(=O)O` (single isomer, unassigned): the Ki is 1200 nM and 690 nM at PPAR-γ; 3000 nM on PPAR-α.
As for `Cc1sc(-c2ccccc2)nc1CCOc1ccc(CC2(C(=O)O)CCCO2)cn1` (stereo not drawn), the Ki on PPAR-γ was 44 nM; at PPAR-α it was 250 nM.
In the case of `COc1ccc(-c2nc(CCOc3ccc(CC4(C(=O)O)CCCO4)nc3)c(C)o2)cc1` (single isomer, unassigned), the inhibition constant Ki on PPAR-α turned out to be 400 nM.
Turning to `Cc1oc(-c2ccccc2)nc1CCOc1ccc(CC2(C(=O)O)CCCO2)cc1` (single isomer, unassigned), the Ki at PPAR-α was found to be 14 nM.
With `CCOC(Cc1ccc(OCCc2nc(-c3ccccc3)oc2C)cn1)C(=O)O` (single isomer, unassigned) [D-23 E/M], the Ki on PPAR-α turned out to be 6500 nM.
On the same count and under the same terms, under `CCOC(Cc1ccc(OCCc2nc(-c3ccccc3)oc2C)cn1)C(=O)O` (single isomer, unassigned) [D-23 S/E] stands 1100 nM.
In the case of `CCC(Oc1cccc(-c2cccc(OCCc3nc(-c4ccccc4)oc3C)c2)c1)C(=O)O` (single isomer, unassigned) [A-05 E/M], the values for the Ki at PPAR-γ and at PPAR-α were 330 nM and 2600 nM, respectively.
As for `CCOC(Cc1ccc(OCCc2nc(-c3ccccc3)sc2C)cn1)C(=O)O` (single isomer, unassigned), the Ki on PPAR-α was determined as 670 nM.
